Drawing on ChEMBL document CHEMBL2202977, “Optimization and structure-activity relationships of a series of potent inhibitors of methicillin-resistant Staphylococcus aureus (MRSA) pyruvate kinase as novel antimicrobial agents” (Bioorg Med Chem, 2012), this text covers inhibition for two compounds.

The test deals with T1, Pyruvate kinase (Staphylococcus aureus (strain MRSA252)) (UniProt Q6GG09).
T1 sequence (whole entry): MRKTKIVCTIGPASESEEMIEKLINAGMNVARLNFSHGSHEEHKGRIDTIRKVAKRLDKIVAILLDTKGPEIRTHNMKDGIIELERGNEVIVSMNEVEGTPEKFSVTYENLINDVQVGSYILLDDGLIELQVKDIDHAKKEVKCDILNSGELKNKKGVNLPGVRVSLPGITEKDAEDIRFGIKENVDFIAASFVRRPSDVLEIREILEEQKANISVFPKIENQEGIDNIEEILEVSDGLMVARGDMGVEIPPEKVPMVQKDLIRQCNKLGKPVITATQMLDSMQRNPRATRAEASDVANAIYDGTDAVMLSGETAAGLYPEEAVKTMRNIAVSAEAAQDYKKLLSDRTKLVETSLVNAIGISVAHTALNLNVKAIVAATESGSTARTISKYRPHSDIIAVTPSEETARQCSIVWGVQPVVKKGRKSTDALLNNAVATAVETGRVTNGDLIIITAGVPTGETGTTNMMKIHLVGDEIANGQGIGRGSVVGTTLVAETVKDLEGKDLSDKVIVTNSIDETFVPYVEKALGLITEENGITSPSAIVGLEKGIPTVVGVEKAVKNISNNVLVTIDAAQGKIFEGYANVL
Briefly: Inhibition of methicillin-resistant Staphylococcus aureus 252 pyruvate kinase at 10 uM by LDH assay. The settings on record: Staphylococcus aureus subsp. aureus MRSA252. Put shortly:
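MRSA pyruvate kinase activity was measured by a previously described procedure. IC50 was calculated from triplicate 15-point titrations, or averaged over n such determinations. Where no IC50 was obtained, the value is % inhibition at the highest concentration tested.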

By inhibition is commonly meant the share of the control response that was lost under treatment.

The structures appear in SMILES notation.

`CC(=NNC(=O)c1cc(Br)ccc1O)c1nc2ccccc2n1C` (mixture of isomers): the inhibition stood at 94.5%.
To `CC(=NNC(=O)c1cc(Br)ccc1O)c1cc2cc(Br)ccc2n1C` (mixture of isomers) belongs 91.5%.
